Experimental findings from publication PMC4660513 (Pharmacognosy Research, 2015) are described below.

Each structure is given as a SMILES string. Where a name gives a salt, the structure may show the parent alone.

For this test, the system named is rat liver microsomes. Kind of test: 4-MU glucuronidation inhibition assay in rat liver microsomes. The class given is in vitro ADME. To be noted: comparison of IC50 values.

Regarding `CNC1(c2ccccc2Cl)CCCCC1=O` (stereo not shown) [Ketamine, Ketamine hydrochloride], the “potency relative to diclofenac” value is listed as “about three orders of magnitude more potent than diclofenac”.
